Experimental findings from PubChem BioAssay AID1996 are described below.

The term kinetic solubility denotes solubility judged after dilution from a stock solution rather than from solid.

≈ marks a conversion by molar mass, not a printed value. Bounds are passed on as bounds.

The conditions of the data set: buffer; pH 7.4; 200.0 µM.
`CN(C)C(=O)Oc1noc2ccccc12` registered a kinetic solubility above 30.9 µg/mL.
The figure for `CCOC(=O)c1ccc(NC(=O)C(C)(CCl)SC)cc1` (stereo unspecified) is above 47.4 µg/mL.
The figure for `Nc1cc(N)c2nonc2c1[N+](=O)[O-]` is 9.4 µg/mL (≈ 48.2 µM).
The figure for `O=[N+]([O-])c1cccc(NC2=NCC(CBr)S2)c1` (stereo unspecified) is 38.9 µg/mL (≈ 123 µM); for `Cc1ccc(C(=O)OC2CN3CCC2CC3)cc1` (stereo unspecified) it is 33 µg/mL (≈ 135 µM); for `O=C(Nc1ccncc1[N+](=O)[O-])c1ccc([N+](=O)[O-])cc1[N+](=O)[O-]` it is above 50 µg/mL.
With `O=[N+]([O-])c1cc([N+](=O)[O-])c(OC2CCCCC2O)c([N+](=O)[O-])c1` (stereo unspecified), the kinetic solubility is 48.8 µg/mL (≈ 149 µM).
The figure for `O=C(OC1CN2CCC1CC2)c1ccc([N+](=O)[O-])cc1` (stereo unspecified) is 35 µg/mL (≈ 127 µM).
The figure for `CC(C)(C)C(=O)NC(Sc1ccncn1)C(Cl)(Cl)Cl` (stereo unspecified) is above 51.4 µg/mL; for `O=C(OC1CN2CCC1CC2)c1ccc(Cl)cc1` (stereo unspecified) it is 35.6 µg/mL (≈ 134 µM); for `COc1ccc(C2=NCC(CBr)S2)cc1` (stereo unspecified) it is 24.7 µg/mL (≈ 86.3 µM).
The figure for `O=C(OC1CN2CCC1CC2)c1cccc2[nH]cnc12` (stereo unspecified) is 39.7 µg/mL (≈ 146 µM).
The molecule `O=C(OC1CN2CCC1CC2)c1cccc([N+](=O)[O-])c1` (stereo unspecified) displayed a kinetic solubility above 41.4 µg/mL.
`NC(=O)c1cc([N+](=O)[O-])cc([N+](=O)[O-])c1N` displayed a kinetic solubility of 11.7 µg/mL (≈ 51.7 µM).
The figure for `CC(=O)c1ccc(N2CC2c2ccncc2)cc1` (stereo unspecified) is above 35.7 µg/mL; for `CCC1=CC2Cc3nc4ccc(Cl)cc4c(N)c3C(C1)C2` (stereo unspecified) it is above 44.8 µg/mL; for `CC(NC(=O)COC(=O)C(O)(c1ccccc1)c1ccccc1)c1ccccc1` (stereo unspecified) it is 10.6 µg/mL (≈ 27.2 µM).
`O=P(Nc1nccs1)(c1ccccc1)c1nc2ccccc2s1` (stereo unspecified) had a solubility (kinetic) of 20.7 µg/mL (≈ 57.9 µM).
The figure for `CCNC(=S)/N=C(\N)N[N+](=O)[O-]` is above 28.7 µg/mL.
The figure for `O=C(OC1CN2CCC1CC2)c1ccccc1` (stereo unspecified) is 31.5 µg/mL (≈ 136 µM); for `O=[N+]([O-])c1ncn(CCn2ncnc2[N+](=O)[O-])n1` it is above 38.1 µg/mL.
